ChEMBL document CHEMBL5126521, “Analgesic Opioid Ligand Discovery Based on Nonmorphinan Scaffolds Derived from Natural Sources” (J Med Chem, 2022)

Protein sequences, listed by entry. Tags and fused reporters are not part of them. Lines headed by an entry give the natural chain unless they say otherwise; changes in a name come on top.
UniProt P33534: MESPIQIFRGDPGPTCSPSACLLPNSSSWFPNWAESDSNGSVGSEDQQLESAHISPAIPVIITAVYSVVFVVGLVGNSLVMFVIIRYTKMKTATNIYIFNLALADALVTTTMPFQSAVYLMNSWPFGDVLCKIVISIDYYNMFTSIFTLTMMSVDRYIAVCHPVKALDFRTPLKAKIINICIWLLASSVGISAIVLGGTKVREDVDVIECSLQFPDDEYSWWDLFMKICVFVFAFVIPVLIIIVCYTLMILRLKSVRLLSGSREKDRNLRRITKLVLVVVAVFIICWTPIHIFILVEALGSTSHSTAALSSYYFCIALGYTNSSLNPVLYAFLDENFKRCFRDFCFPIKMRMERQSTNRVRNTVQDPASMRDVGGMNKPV

Columns and labels:
[1] = target: T1, Kappa-type opioid receptor (Mus musculus, UniProt P33534); assay: Displacement of [3H]U69593 from C57BL6/J mouse brain KOP; assay type: tissue-based
[2] = target: T1, Kappa-type opioid receptor; assay: Agonist activity at C57BL6/J mouse brain KOP by calcium mobilization assay; assay type: functional, tissue-based
[3] = target: T1, Kappa-type opioid receptor; assay: Agonist activity at C57BL6/J mouse brain KOP; assay type: functional, tissue-based

Compound: COC(=O)[C@@H]1C[C@H](OC(C)=O)C(=O)[C@H]2[C@@]1(C)CC[C@H]1C(=O)O[C@H](c3ccoc3)C[C@]21C [SALVINORIN A]
- Ki [1]: 18.7 nM
- EC50 [2]: 104 nM
- EC50 [3]: 6.9 nM
